Measurements published in US8916540B2, “Antibiotic compositions and related screening methods” (Academia Sinica, priority 2008, dated 2014).

Columns and labels:
Experiment in all cases: SPR moenomycin binding to immobilized full-length PBP
Conditions in all cases: read-out: SPR_KD, steady-state affinity, average values
[1] = biological target: PBP1a from Helicobacter pylori (Helicobacter pylori, UniProt O25319)
[2] = biological target: T1, PBP1 from Neisseria gonorrhoeae (Neisseria gonorrhoeae, UniProt O05131)
T1 construct: The recombinant proteins of the full-length genes from 16 bacteria; (His)6 (N); made in house; host or cells: E. coli BL21(DE3)

[3] = biological target: T2, PBP from Clostridium difficile (Clostridioides difficile, UniProt Q189X7)
T2 sequence (Q189X7 1-897): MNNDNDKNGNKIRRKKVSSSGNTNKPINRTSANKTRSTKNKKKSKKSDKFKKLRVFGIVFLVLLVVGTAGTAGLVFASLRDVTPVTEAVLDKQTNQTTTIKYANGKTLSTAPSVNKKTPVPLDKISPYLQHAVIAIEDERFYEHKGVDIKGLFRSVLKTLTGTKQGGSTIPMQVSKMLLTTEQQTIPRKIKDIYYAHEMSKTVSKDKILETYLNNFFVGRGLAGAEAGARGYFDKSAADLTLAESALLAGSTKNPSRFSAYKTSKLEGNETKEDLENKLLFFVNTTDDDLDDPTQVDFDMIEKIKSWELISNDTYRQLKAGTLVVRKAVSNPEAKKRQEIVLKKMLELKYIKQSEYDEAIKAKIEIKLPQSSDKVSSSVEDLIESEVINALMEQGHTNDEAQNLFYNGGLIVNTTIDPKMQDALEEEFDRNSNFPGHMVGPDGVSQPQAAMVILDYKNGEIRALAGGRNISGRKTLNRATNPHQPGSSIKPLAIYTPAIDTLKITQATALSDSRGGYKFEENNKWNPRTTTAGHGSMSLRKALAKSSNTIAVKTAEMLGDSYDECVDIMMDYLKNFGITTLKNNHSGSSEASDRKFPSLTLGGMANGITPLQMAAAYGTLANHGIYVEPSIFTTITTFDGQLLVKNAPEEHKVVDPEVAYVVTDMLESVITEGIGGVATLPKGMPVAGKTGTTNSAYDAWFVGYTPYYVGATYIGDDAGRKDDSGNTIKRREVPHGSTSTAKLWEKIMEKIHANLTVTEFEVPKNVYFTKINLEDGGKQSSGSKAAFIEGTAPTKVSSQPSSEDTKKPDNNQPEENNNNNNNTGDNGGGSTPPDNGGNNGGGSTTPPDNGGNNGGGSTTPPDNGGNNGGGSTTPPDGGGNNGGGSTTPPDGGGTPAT

Moenomycin A [Compound 1]
Kd [1]: 334 nM
Kd [2]: 450 nM
Kd [3]: 582 nM
